Results reported in article PMC11855827, “High-Throughput Screening of Five Compound Libraries for Anthelmintic Activity and Toxicity Leads to the Discovery of Two Flavonoid Compounds” (International Journal of Molecular Sciences, 2025).
Where two headings read alike, the source gives them in different places.

System: C. elegans
Experiment: microbe, parasite or virus in culture
Conditions: Caenorhabditis elegans
[1] = 0 h, read-out: Percentage of motility inhibition 0 h
[2] = 24 h, read-out: Percentage of motility inhibition 24 h

Q: How did the inhibition at 110 µM [1] turn out when `C=C1CCC[C@]2(C)C=C3OC(=O)C(C)=C3C[C@@H]12` [Atractylenolide I] was run?
A: 0%

Q: And the inhibition at 110 µM [2]?
A: 3%

Q: Which results are given for `COc1cc(O)c2c(=O)c(O)c(-c3ccc(O)cc3)oc2c1` [Rhamnocitrin]?
A: inhibition at 110 µM [1]: 6%; inhibition at 110 µM [2]: 23%

Q: Which results are given for `C[C@@H](O)[C@H]1C(=O)N2C(C(=O)OCOC(=O)C(C)(C)C)=C(SC3CN(C4=NCCS4)C3)[C@H](C)[C@H]12` [Tebipenem pivoxil]?
A: inhibition at 110 µM [1]: 55%; inhibition at 110 µM [2]: 37%
